Our source for the ED50 values is ChEMBL document CHEMBL1125216, “Potent, orally active imidazo[4,5-b]pyridine-based angiotensin II receptor antagonists” (J Med Chem, 1991).

The target of this test is Type-1 angiotensin II receptor (Rattus norvegicus) (UniProt P25095). Put plainly: The compound was tested for inhibition of angiotensin II receptor induced pressor response in rat after intravenous administration.

The compound `CCc1nc2c(C)cc(C)nc2n1Cc1ccc(-c2ccccc2-c2nn[nH]n2)cc1` [L-158809] registered an ED50 of 0.048 mg/kg.
